By UniProt entry, the sequences of proteins in these tests, tags left out. Where a name states a change or a piece, a line headed by the entry shows the natural chain unless it says otherwise.
UniProt Q02127: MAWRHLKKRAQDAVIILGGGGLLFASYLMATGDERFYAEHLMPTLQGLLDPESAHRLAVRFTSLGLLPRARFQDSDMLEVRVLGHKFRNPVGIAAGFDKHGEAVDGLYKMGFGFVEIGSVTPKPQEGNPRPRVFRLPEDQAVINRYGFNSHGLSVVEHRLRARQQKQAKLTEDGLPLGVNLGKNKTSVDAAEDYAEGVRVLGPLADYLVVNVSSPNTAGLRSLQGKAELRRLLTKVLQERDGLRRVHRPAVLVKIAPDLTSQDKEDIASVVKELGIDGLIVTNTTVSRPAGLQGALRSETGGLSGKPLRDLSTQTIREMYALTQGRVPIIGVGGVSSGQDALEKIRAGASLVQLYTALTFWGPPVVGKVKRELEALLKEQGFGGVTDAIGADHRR

According to patent US9006454B2, “Dihydroorotate dehydrogenase inhibitors” (Merck Serono S.A., priority 2009, dated 2015):

Target: DHODH (Homo sapiens (Human), UniProt Q02127)
Test: DHODH activity assay (coupled enzyme assay, DCIP reduction, absorbance at 610 nm)
Type: biochemical
Protocol: The DHODH activity assay is a coupled enzyme assay in which oxidation of DHO and subsequent reduction of ubiquinone are stoichiometrically equivalent to the reduction of DCIP ([…]). The reduction of DCIP is accompanied by a loss of absorbance at 610 nm.
Buffer Preparation: 50 mM tris HCl, 150 mM KCl, and pH 8.0, 0.8% triton.
5 μL of Dimethyl sulfoxide or a compound of formula I in DMSO solution was added to the wells of a 96 well plate. Compounds of formula I were measured at 10 μM.
Protein along with buffer was added, so that the total volume including the DMSO was 87 μL. Compound and protein were incubated for half an hour at room temperature after mixing. 5 μL of 20 mM solution of L-Dihydroorotic acid, 5 μL of 2 mM solution of Decylubiquinone and 3 μL of 2 mM solution of 2,6-Dichloroindophenol sodium salt hydrate were added to the above solution (total assay volume 100 μL). The mixture was stirred for 2 min and absorbance was recorded at every 10 min at 610 nanometers.
Percent Inhibition is Calculated as Follows
Reaction containing compound has compound, buffer, enzyme and substrates
Positive control contains DMSO, buffer, enzyme and substrates
No Enzyme reaction contains DMSO, buffer and substrates
IC50 determination: • A 2 mM DMSO stock of the compound of formula I to be examined was prepared. ⅓rd dilutions were made as follows: […]

IC50: 692 nM
SMILES: Cc1cc(C(=O)O)c2nc(-c3ccc(-c4ccc(NC(=O)[C@@H]5CCCN5)cc4)cc3)[nH]c2c1 [I89]
